Experimental data from publication PMC10762035, “Molecular basis of human trace amine-associated receptor 1 activation” (Nature Communications, 2024).

Target: T1, hTA1 W264F (Homo sapiens, UniProt Q96RJ0, W264F)
T1 construct: expressed in transfected cells; host or cells: HEK293T
T1 sequence (Q96RJ0 1-339 W264F): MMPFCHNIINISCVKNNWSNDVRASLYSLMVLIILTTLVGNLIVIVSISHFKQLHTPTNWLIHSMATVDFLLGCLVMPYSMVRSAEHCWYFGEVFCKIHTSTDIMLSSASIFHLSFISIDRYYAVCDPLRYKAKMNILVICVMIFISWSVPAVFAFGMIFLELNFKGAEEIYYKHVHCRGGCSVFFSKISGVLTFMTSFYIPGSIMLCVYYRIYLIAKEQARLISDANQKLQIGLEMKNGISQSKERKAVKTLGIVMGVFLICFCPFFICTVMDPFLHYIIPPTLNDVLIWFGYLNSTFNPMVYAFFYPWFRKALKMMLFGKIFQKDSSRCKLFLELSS
Test: GloSensor cAMP accumulation assay, W264F mutant;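 note: cells transiently transfected with receptor plus GloSensor, luminescence read 30 min after agonist addition at room temperature, concentration-response curves fitted by log(agonist) vs response regression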
Assay type: cell-based

In the case of CCc1[nH]nc(C(=O)Nc2ccc([C@H]3CNCCO3)cc2)c1C [ralmitaront], the EC50 (W246F mutant (so in the source), each line an independent experiment, 3 replicates, read-out: pEC50 values (Mean) (converted)) is reported as 7.22 µM and 1.73 µM and the EC50 (W264F, n=2, read-out: EC50) is reported as 3.53 µM.

Values joined by “and” are separate entries in the source; they are usually repeats but may differ in a detail not shown here. Equal values may be shown once. Read-outs that look alike come from different tables or passages of the source.
